The list shows a part of the results, in another mix than the full data. Activity calls are given as the source filed them.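 How the source made its calls: active means inhibition above the plate cutoff, the mean of all test compounds on that plate plus 3 SD (cut at about 35% in these data); inactive means the rest.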

The assay is described as follows: small molecules binding CAG repeat RNA – biochemical, fluorescence, primary screen (AID 651821).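 Further: 0% = DMSO alone and 100% = 100 µM mitoxantrone as full dye displacement; higher means more dye released from RNA so lower well fluorescence.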 The settings on record: r(CAG) RNA repeat, TO-PRO-1 dye displacement fluorescence; at 3 µM; stronger effect = higher value.
Usually inhibition stands for the relative decrease from the control value, in per cent. As for `CCCC1OP(N)(=O)OCC1CC` (centres undefined), the inhibition was inactive: 1.25%.

Turning to `CCn1c(=O)n(C2CCN(CC3CCCCCCC3)C[C@H]2CO)c2ccccc21` (some centres undefined), the inhibition was inactive: -1.29%. The figure for `CCOP(=O)(Nc1ccccc1)OCC` is inactive: -0.54%; for `Cc1cc(SC(NC(=O)c2ccc(F)cc2)C(Cl)(Cl)Cl)ncn1` (centres undefined) it is inactive: -1.15%.

As for `Cc1ccc(NP(=O)(Oc2ccccc2F)Oc2ccccc2F)nc1`, the inhibition was inactive: -0.62%. Consider `Oc1ccccc1CNc1ccccn1`, for which the inhibition was inactive: -0.23%.

In the case of `O=C(NC(Sc1ccncn1)C(Cl)(Cl)Cl)c1ccccc1` (centres undefined), the inhibition is inactive: -3.67%. The figure for `CC(C)CC(=O)NC(Sc1ccc(Cl)cc1)C(Cl)(Cl)Cl` (centres undefined) is inactive: -6.19%. Turning to `Nc1cc(N)c2nonc2c1[N+](=O)[O-]`, the inhibition was inactive: 0.07%. The figure for `Cc1ccc(N/C(=N/P(=O)(N2CCOCC2)N2CCOCC2)N2CCOCC2)cc1` is inactive: -4.42%.

Regarding `NC(=O)c1cc([N+](=O)[O-])cc([N+](=O)[O-])c1N`, the inhibition was inactive: 1.86%. The figure for `Clc1ccc(Cl)c(NC2=NCC(CBr)S2)c1` (centres undefined) is inactive: 1.77%; for `CN1CCCC(OC(=O)C(c2ccccc2)c2ccccc2)C1` (centres undefined) it is inactive: -10.7%; for `COc1ccccc1OP(=O)(Nc1ccc(C)cn1)Oc1ccccc1OC` it is inactive: -3.64%. The figure for `Cc1ccc(OP(=O)(Nc2nccs2)Oc2ccc(C)cc2)cc1` is inactive: -0.69%; for `Cc1ccccc1CN(C)C(=O)COC(=O)C(O)(c1ccccc1)c1ccccc1` it is inactive: 1.69%. On to `C[C@@H]1C=CCP(=O)(Oc2ccccc2)O1` (some centres undefined), for which the inhibition is inactive: 0.45%. For the compound `C[C@H]1OP(=O)(Oc2ccccc2)C[C@@H]2O[C@@H]21` (some centres undefined), the inhibition was inactive: -0.11%. The figure for `N#C/C(=C\c1ccc(N(CCBr)CCBr)cc1)C(N)=O` is inactive: 2.73%; for `CC(=O)c1ccc(N2CC2c2ccncc2)cc1` (centres undefined) it is inactive: 3.86%. With `COC(=O)C1(C)COP(=O)(NCc2ccccc2)OC1` (centres undefined), the inhibition was inactive: -0.83%. Turning to `CC(=O)Nc1ccc([As](=O)(O)O)c(O)c1`, the inhibition is inactive: 0.07%. The figure for `CC(=O)Nc1ccc(Oc2c([N+](=O)[O-])cc([N+](=O)[O-])cc2[N+](=O)[O-])cc1` is inactive: 5.85%; for `O=P1(Nc2nc3ccc(Cl)cc3s2)COc2ccccc2O1` (centres undefined) it is inactive: 0.3%. Regarding `CCOc1ccc(C2=NCC(CBr)S2)cc1` (centres undefined), the inhibition was inactive: -1.57%. As for `CC(C)(C)C(=O)NC(Sc1ccccc1)C(Cl)(Cl)Cl` (centres undefined), the inhibition is inactive: -6.45%. Take `CCc1cc(O)c([N+](=O)[O-])c(C)c1[N+](=O)[O-]`: the inhibition was inactive: 2.84%.

Turning to `O=C(OC1CN2CCC1CC2)c1ccccc1` (centres undefined), the inhibition was inactive: -1.08%. The figure for `CCC(=O)N1C2C3N(C(=O)CC)C1C1N(C(=O)CC)C(C(N1C(=O)CC)N3C(=O)CC)N2C(=O)CC` is inactive: -0.22%.
